Measurements published in patent publication US5707798A, “Identification of ligands by selective amplification of cells transfected with receptors” (priority 1994, dated 1998).

The chains behind the UniProt entries cited, without tags or fusion partners. Residues count along the entry.
UniProt P21450, 21-427: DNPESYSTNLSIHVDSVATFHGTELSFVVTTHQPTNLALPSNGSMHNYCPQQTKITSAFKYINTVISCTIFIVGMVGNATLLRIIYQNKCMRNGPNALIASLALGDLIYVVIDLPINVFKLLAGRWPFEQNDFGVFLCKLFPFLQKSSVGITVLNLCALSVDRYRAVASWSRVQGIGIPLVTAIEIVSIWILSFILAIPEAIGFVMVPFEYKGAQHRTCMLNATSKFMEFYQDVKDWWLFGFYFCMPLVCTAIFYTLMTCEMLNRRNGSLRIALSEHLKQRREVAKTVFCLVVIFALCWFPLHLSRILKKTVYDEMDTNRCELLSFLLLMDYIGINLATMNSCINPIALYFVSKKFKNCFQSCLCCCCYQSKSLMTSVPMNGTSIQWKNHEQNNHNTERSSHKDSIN

Columns and labels:
[1] = test system: certain muscarinic receptors; settings: cited from earlier work
[2] = molecular target: T1, Endothelin ETB receptor (Rattus norvegicus, UniProt P21451); format: cell-based; settings: Table 2, read-out: Ligand EC50
T1 construct: expressed in transfected cells; host or cells: NIH 3T3 (mouse fibroblasts)
T1 sequence (P21451 27-442): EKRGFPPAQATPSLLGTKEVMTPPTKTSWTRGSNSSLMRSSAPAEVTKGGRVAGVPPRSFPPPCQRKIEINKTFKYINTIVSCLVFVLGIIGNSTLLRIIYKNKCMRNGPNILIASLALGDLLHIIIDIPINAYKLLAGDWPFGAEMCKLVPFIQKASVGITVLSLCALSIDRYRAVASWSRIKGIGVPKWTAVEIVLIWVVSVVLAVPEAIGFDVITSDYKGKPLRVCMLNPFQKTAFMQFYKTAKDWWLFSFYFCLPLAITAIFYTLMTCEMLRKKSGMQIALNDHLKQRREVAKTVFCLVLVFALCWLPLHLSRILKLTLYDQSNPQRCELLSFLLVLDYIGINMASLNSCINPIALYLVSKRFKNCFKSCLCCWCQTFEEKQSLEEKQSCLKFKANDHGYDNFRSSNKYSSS

[3] = molecular target: T2, Endothelin ETA receptor (Bos taurus, UniProt P21450); format: cell-based; settings: Table 2, read-out: Ligand EC50
T2 construct: expressed in transfected cells; host or cells: NIH 3T3 (mouse fibroblasts)

C[N+](C)(C)CCOC(N)=O [carbachol]
growth stimulation [1]: stimulates

ET-1: endothelin receptor ligand
EC50 [2]: 0.24 ± 0.2 nM
EC50 [3]: 0.079 ± 0.048 nM
